Reference: patent US20100172870A1, “METHODS, USES AND COMPOSITIONS FOR MODULATING REPLICATION OF HCV THROUGH THE FARNESOID X RECEPTOR (FXR) ACTIVATION OR INHIBITION” (priority 2006, published 2010)

Tested on: genotype 1b replicon (R1b)
Assay: HCV subgenomic replicon R1b luciferase assay
Assay type: cell-based, hepatitis C virus (HCV)
From the text: Replicons: Three subgenomic replicons were used in this study: two replicative forms called R1a and R1b according to their genotype origin and a derivative of the R1b replicon with a mutation in the RNA-dependant RNA polymerase (Rp-del) which is thus unable to replicate and was used as a negative control in all experiments. They are bicistronic RNAs which contains the firefly luciferase (Photinus pyralis) reporter gene downstream of the HCV IRES and the sequence coding for the polyprotein NS3 to NS5B downstream of the encephalomyocarditis virus (EMCV) IRES.
RNA transfection: The replicons were transfected into Huh7 cells by electroporation.
Subconfluent monolayers of Huh7 cells were detached from the culture dish by trypsin treatment and rinsing with complete DMEM. […] 400 μL of the cell suspension was mixed by gentle pipetting with 8 μg RNA (R1a, R1b or Rp-del) and transferred into an electroporation cuvette with a gap-width of 0.4 cm (BioRad). The mixture was immediately subjected to one electric pulse at 270 V, 950 μF and maximum resistance using a Gene Pulser System (BioRad).
After electroporation the 400 μL of each cell suspension was diluted in 9 mL complete DMEM and pooled together before being seeded onto 24-well plates (1 mL per well).
Luciferase Assay: Cells were washed with PBS and scraped off the plate with 80 μL of 1× Luciferase Cell Culture Lysis Reagent (Promega). 40 μL of the lysate were transferred to a 96-well plate and mixed with 200 μL of Luciferase Assay Reagent (Promega). Luminescence expressed as relative light units (RLU) was measured immediately on a scintillation counter (Top Count NXT, Perkin Elmer) for 10 s.
The data are averages from triplicate cultures. […] The values are expressed as relative ratios of the values obtained 4 h after electroporation. Unless otherwise stated, the RLU values were determined 72 h after transfection when cells were confluent.

## IFN: IFNa-2b from Schering-Plough
10 μM of GGS added, CDCA treated cells
  IFN concentration reaching an inhibition of 90% of the replication, with GGS, CDCA: 0.2 U/mL
10 μM of GGS added, mock treated cells
  IFN concentration reaching an inhibition of 90% of the replication, with GGS, mock: 0.1 U/mL
Huh7-Lunet cells, 72 h, both with CDCA 100 μM and BA-untreated
  concentration at which IFN treatment began to be effective: 0.1 U/mL
Huh7-Lunet cells, CDCA 100 μM, 72 h
  IC50 of IFN on replication, in presence of CDCA: 0.3 U/mL
Huh7-Lunet cells, R1b alone, 72 h
  IC50 of IFN on replication, BA-untreated cells: 0.25 U/mL
Mock and CDCA treated cells, without GGS
  IFN concentration reaching an inhibition of 90% of the replication: 0.9 U/mL
